We go through three compounds from PubChem BioAssay AID1578 (Sanford-Burnham Center for Chemical Genomics, 2009).

This is a selection; strong and weak results do not stand in their true shares. Calls of active or inactive are those of the source. Cut-off read from the data, not from the text of the source: active = inhibition mostly above about 36% (no sharp cut-off); inactive = mostly below about 34%.

The nature of the experiment: NOD1 signaling inhibitors, primary screen, cell-based, luminescence, uHTS (AID 1578).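 Note: HEK-293T reporter cells stimulated with the NOD1 agonist gamma-tri-DAP.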 Particulars: NOD1-driven NF-kB luciferase reporter cells, at 4 µM, active compounds read high. On the technique in general: A reporter such as luciferase makes a cellular process visible.
For orientation: inhibition means the drop in the measured response relative to a control, in per cent. With `O=c1c2cc([N+](=O)[O-])ccc2[nH]c2c([N+](=O)[O-])cc([N+](=O)[O-])cc12`, the inhibition is active: 73.4%.
Consider `O=[N+]([O-])c1ccc(O)c(/C=N/Nc2ccc([N+](=O)[O-])cc2[N+](=O)[O-])c1`, for which the inhibition was active: 99.1%.
With `C[N+]1=C2C=CC=CC=C2SC12C([N+](=O)[O-])=CC([N+](=O)[O-])=C[C-]2[N+](=O)[O-]` (stereo not drawn), the inhibition is active: 95.5%.
